Assay results as given in patent US20220280663A1, “CELLULAR TARGETED PHARMACEUTICALLY ACTIVE SUBSTANCE OR LABEL DELIVERY SYSTEM” (CELLIS AG, priority 2016, published 2022).

System: metastatic 4T1 cancer
Details: mouse, in vivo, iv
Text: This step should be repeated until no radioactivity is detected in the supernatant.

PET signal: lower PET signal
Substance: ^18F fluorodeoxyglucose [^18F-FDG]
